SR-BI uptake up – SR-BI HDL lipid transfer activation. CHO ldlA[mSR-BI] cells, DiI-HDL uptake fluorescence, 3 h; 100 = double the neutral-control signal. activation, % at 12.5 µM. 0.096% of 320,000 active;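 active = mean replicate activation of at least 60% and every replicate at or above 60%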;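 also: 0% = median plate neutral-control signal and 100% = twice that signal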
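Material: SR-BI-overexpressing, LDLR-lacking CHO cells; schedule: compound exposure 3 h, 37 °C; reagent: DiI-labelled HDL at 10 µg/mL final; technique: bottom-read fluorescence, 550/595 nm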
GSIS activator – primary screen for activators of insulin secretion dependent on glucose, INS-1E cells, GLuc reporter luminescence. INS-1E GLuc reporter insulin secretion, 2-3 h. activation, % at 16.6 µM. 0.61% of 370,000 active. AID 743287;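 active = lowest replicate activation of at least 40%, so every replicate reaches that level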;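 also: 0% = median of neutral control wells and 100% = median of IBMX positive control wells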
UUG fidelity – alters start codon recognition fidelity in yeast | S. cerevisiae UUG-firefly luciferase reporter, luminescence/redox ratio | activity score, % at 18.7 µM | 350,000 compounds, 0.13% hits | AID 602363;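 active = replicate mean at a twofold rise or more, about +100% in these data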;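 note: firefly luciferase made from a UUG start codon reports start codon fidelity; reporter light over untreated wells divided by growth signal over untreated wells; some hits fall short of that in this replicate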
SR-BI HDL uptake – mouse SR-BI HDL lipid transfer inhibition | Q61009 | ldlA[mSR-BI] CHO cells, DiI-HDL uptake fluorescence, 3 h | inhibition, % at 12.5 µM | 0.96% of 320,000 active;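 active = mean replicate inhibition of at least 70% and a set share of replicates each scoring 70 or more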;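 also: 0% = median of neutral control wells and 100% = median of positive control wells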
The depositor's hits bear a star; x = no result. Sampled rows, rich in hits. Any-hit rate of the full collection: about 1.3%.

Order of values: SR-BI uptake up	GSIS activator	UUG fidelity	SR-BI HDL uptake
> COc1cc2c(cc1OC)-c1nc3ccccc3c(=O)n1C(C)(C)C2
 : -44	x	-18	44
> COc1cc2c(cc1OC)C(Nc1ccccc1)=NC(C)(C)C2
 : 43	57*	-17	-43
> CCc1ccc(OCC(=O)NC(=S)Nc2ccc(C(C)=O)cc2)c(Br)c1
 : -8	8	-25	8
> CCc1ccc(OCC(=O)NC(=S)Nc2ccc(F)cc2)c(Br)c1
 : 10	59*	-12	-10
> COc1ccc(OCC(=O)Nc2ccccc2O)cc1
 : -8	x	-14	8
> CCCNC(=O)c1ccccc1NC(=O)COc1ccc(OC)cc1
 : 8	57*	13	-8
> C/C(=N\OCC(=O)N/N=C/c1ccc(C)cc1O)c1cccs1
 : 4	x	-21	-4
> C/C(=N\NC(=O)CO/N=C(\C)c1cccs1)c1ccc(N)cc1
 : 9	46*	-16	-9
> OC[C@@H]1[C@@H](c2ccc(C#CC3CCCC3)cc2)[C@@H]2CN(CCC(F)(F)F)CCCCN12
 : x	46*	2	x
> COc1ccccc1NC(=O)N1CCCCN2[C@@H](CO)[C@@H](c3ccc(C#CC4CCCC4)cc3)[C@@H]2C1
 : x	55*	-17	x
> COc1ccccc1NC(=O)N1CCCCN2[C@H](CO)[C@@H](c3ccc(C#CC4CCCC4)cc3)[C@@H]2C1
 : x	4	-2	x
> OC[C@H]1[C@H](c2ccc(C#CC3CCCC3)cc2)[C@@H]2CN(CCC(F)(F)F)CCCCN12
 : x	24	10	x
> OC[C@@H]1[C@@H](c2ccc(C#CC3CCCC3)cc2)[C@H]2CN(CCC(F)(F)F)CCCCN12
 : x	170*	-1	x
> CCC(=O)Nc1ccc2c(c1)C(=O)N(C)[C@H]1CC[C@H](CC(=O)NCCc3ccncc3)O[C@H]1CO2
 : x	13	x	x
> O=C(Nc1cccc(Cl)c1)N[C@H]1CC[C@@H](CCNC(=O)C2CCCC2)O[C@@H]1CO
 : x	-22	-2	x
> C[C@H]1CN([C@@H](C)CO)C(=O)c2cc(NC(=O)Cn3cnnn3)ccc2O[C@@H]1CN(C)S(=O)(=O)c1ccc(F)cc1
 : x	9	1	x
> Cc1[nH]c2ccccc2c1/C=N/Nc1nc(N2CCCCC2)nc(N2CCCCC2)n1
 : -91	-42	x	91*
> Cc1ccc(NC(=S)N/N=C/c2c(C)[nH]c3ccccc23)cc1
 : -102	-3	-16	102*
> C(=N\Nc1nc(N2CCCCC2)nc(N2CCCCC2)n1)/c1c[nH]c2ccccc12
 : -64	3	x	64
> Cc1[nH]c2ccccc2c1/C=N/NC(N)=S
 : -86	3	x	86*
> CO[C@H]1CN(C)C(=O)c2ccc(NC(=O)c3cnccn3)cc2OC[C@@H](C)N(CCc2ccccc2)C[C@@H]1C
 : x	-6	x	x
> CC=Cc1ccc2n(c1=O)C[C@@H]1[C@@H](CO)[C@H](C(=O)NCC3CC3)N(Cc3cccnc3)[C@H]21 (mixture of isomers)
 : x	2	x	x
> COc1ccc(C2C(C#N)=C(N)Oc3cc(O)ccc32)cc1C (stereo unspecified)
 : -81	-20	-5	81*
> CC1CCc2c(sc3ncnc(NCCCOC(C)C)c23)C1 (stereo unspecified)
 : -75	x	-16	75*
> COc1ccc(NC(=S)NNc2ccc([N+](=O)[O-])cc2S(=O)(=O)Nc2ccc(C)cc2C)cc1
 : -77	-17	x	77*
> Cc1ccc(NS(=O)(=O)c2cc([N+](=O)[O-])ccc2NNC(=S)Nc2cc(C)ccc2C)c(C)c1
 : -79	-21	-24	79*
> Cc1ccc(NS(=O)(=O)c2cc([N+](=O)[O-])ccc2NNC(=S)Nc2cccc(Cl)c2)c(C)c1
 : -95	x	x	95*
> CCCNC(=O)N1CC2(C1)CN(C(=O)CC)[C@@H](CO)c1[nH]c3cc(OC)ccc3c12
 : x	2	x	x
> C[C@@H]1CN([C@H](C)CO)S(=O)(=O)c2ccc(-c3cccnc3)cc2O[C@@H]1CN(C)C(=O)NC1CCCC1
 : x	8	2	x
> CCOC(=O)c1oc2cc(O)cc(C)c2c1C
 : -9	40*	-13	9

Ordered by SMILES length (low to high): some entries from above
Order of values: SR-BI uptake up	GSIS activator	UUG fidelity	SR-BI HDL uptake
> COc1ccc(C2C(C#N)=C(N)Oc3cc(O)ccc32)cc1C (stereo unspecified)
 : -81	-20	-5	81*
> COc1ccc(NC(=S)NNc2ccc([N+](=O)[O-])cc2S(=O)(=O)Nc2ccc(C)cc2C)cc1
 : -77	-17	x	77*
> Cc1ccc(NS(=O)(=O)c2cc([N+](=O)[O-])ccc2NNC(=S)Nc2cc(C)ccc2C)c(C)c1
 : -79	-21	-24	79*
> CC=Cc1ccc2n(c1=O)C[C@@H]1[C@@H](CO)[C@H](C(=O)NCC3CC3)N(Cc3cccnc3)[C@H]21 (mixture of isomers)
 : x	2	x	x

Further records follow:
Order of values: SR-BI uptake up	GSIS activator	UUG fidelity	SR-BI HDL uptake
> C[C@@H]1CCCCO[C@H](CN(C)S(=O)(=O)c2cn(C)cn2)[C@@H](C)CN([C@H](C)CO)C(=O)c2cc(NS(=O)(=O)c3cn(C)cn3)ccc2O1
 : x	28	27	x
> N#CCCn1cc(/C=N/NC(N)=S)c(-c2ccccc2)n1
 : -79	21	x	79*
> N#CCCn1cc(/C=N/NC(N)=S)c(-c2ccc(Br)cc2)n1
 : -43	75	x	43
> Cc1noc(C)c1NC(=O)Nc1ccc2c(c1)C(=O)N([C@@H](C)CO)C[C@@H](C)[C@H](CN(C)C(=O)CCCN(C)C)OCCCC[C@@H](C)O2
 : x	15	22	x

Assay outcomes: PubChem BioAssay, Broad Institute
